# Experimental data from patent US9737535B2, “Methods for treating cancer using TOR kinase inhibitor combination therapy comprising administering substituted pyrazino[2,3-b]pyrazines” (Signal Pharmaceuticals, LLC, priority 2014, dated 2017).
# Where a name gives a salt, the structure may show the parent alone.
# How the values were obtained:
# Test in all cases: Anti-proliferation assay (ATPLite), Chalice synergy score
# Format in all cases: cell-based
# MDA-MB-468 = conditions: Compound 1 in combination with second active agent, mean self-cross + 2σ threshold 4.66
# Excerpt: (§1) Cells were thawed from a liquid nitrogen preserved state.
# (§2) The calculation for synergy score is provided below.
# (§3) If T≧V0:100*[1−(T−V0)/(V−V0)]
# HCC-1500 = conditions: Compound 1 in combination with the named second active agent, 72 h, mean of n = 3 experiments in triplicate
# Excerpt: as §1, §2, §3
# MDA-MB-231 = conditions: Compound 1 in combination with second active agent, mean self-cross + 2σ threshold 2.61
# Excerpt: as §1, §2, §3
# Hs-578-T = conditions: Compound 1 in combination with second active agent, mean self-cross + 2σ threshold 4.09
# Excerpt: as §1, §2, §3
# MDA-MB-436 = conditions: Compound 1 in combination with second active agent, mean self-cross + 2σ threshold 1.91
# Excerpt: as §1, §2, §3
structure (smiles),measurement,setting,value
C[C@@H](Oc1cc(-c2cnn(C3CCNCC3)c2)cnc1N)c1c(Cl)ccc(F)c1Cl [Crizotinib],Synergy score,MDA-MB-468,1.41
same,Synergy score,HCC-1500,1.76
"COc1cccc2c1C(=O)c1c(O)c3c(c(O)c1C2=O)C[C@@](O)(C(=O)CO)C[C@@H]3O[C@H]1C[C@H](N)[C@H](O)[C@H](C)O1 [Doxorubicin Hcl, Doxorubicin HCl]",Synergy score,MDA-MB-231,6.45
C=CC(=O)N1CCC[C@@H](n2nc(-c3ccc(Oc4ccccc4)cc3)c3c(N)ncnc32)C1 [PCI-32765],Synergy score,Hs-578-T,1.04
CNC(=O)c1cc(Oc2ccc(NC(=O)Nc3ccc(Cl)c(C(F)(F)F)c3)cc2)ccn1 [Sorafenib],Synergy score,MDA-MB-436,1.35
